Target: T1, Rhopr5HTR2b (R. prolixus serotonin type 2b receptor) (Rhodnius prolixus, UniProt A0A0H4TRR1)
T1 construct: gene 5HT-R2; complete open reading frame (Genbank KP325472) in pcDNA3.1, transiently expressed in CHOK1-aeq cells
T1 sequence (A0A0H4TRR1 1-703): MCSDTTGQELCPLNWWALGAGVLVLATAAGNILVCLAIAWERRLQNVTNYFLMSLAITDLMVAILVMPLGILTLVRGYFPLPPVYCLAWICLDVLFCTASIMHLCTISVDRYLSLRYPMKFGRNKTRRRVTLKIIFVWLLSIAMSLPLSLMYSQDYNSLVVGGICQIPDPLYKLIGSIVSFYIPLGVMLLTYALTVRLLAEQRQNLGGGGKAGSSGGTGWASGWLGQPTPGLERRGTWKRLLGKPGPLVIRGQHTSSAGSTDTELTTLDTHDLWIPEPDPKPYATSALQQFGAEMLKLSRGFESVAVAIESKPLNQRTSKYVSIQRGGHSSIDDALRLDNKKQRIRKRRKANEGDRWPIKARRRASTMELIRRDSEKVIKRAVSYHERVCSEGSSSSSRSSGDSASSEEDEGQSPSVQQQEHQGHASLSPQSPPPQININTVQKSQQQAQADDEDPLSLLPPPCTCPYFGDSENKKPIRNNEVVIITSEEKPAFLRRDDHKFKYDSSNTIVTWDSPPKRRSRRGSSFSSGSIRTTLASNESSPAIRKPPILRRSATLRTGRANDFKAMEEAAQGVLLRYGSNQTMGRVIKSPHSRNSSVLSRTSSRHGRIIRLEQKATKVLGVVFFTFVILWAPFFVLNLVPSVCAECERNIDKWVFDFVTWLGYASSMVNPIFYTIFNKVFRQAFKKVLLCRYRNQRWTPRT
Experiment: aequorin calcium luminescence assay, agonist dose-response in transfected CHOK1-aeq cells
Format: cell-based

With `NCCc1c[nH]c2ccc(O)cc12` [serotonin] as the molecule, how does the EC50 read?
Its EC50 is 201 nM.
